# Measured values from US9315491B2 (DEVELOPMENT CENTER FOR BIOTECHNOLOGY, priority 2009, dated 2016).
# Sequences of proteins named here, by UniProt entry; tags and fusion partners are left off.
# UniProt P42336, whole entry, species assumed: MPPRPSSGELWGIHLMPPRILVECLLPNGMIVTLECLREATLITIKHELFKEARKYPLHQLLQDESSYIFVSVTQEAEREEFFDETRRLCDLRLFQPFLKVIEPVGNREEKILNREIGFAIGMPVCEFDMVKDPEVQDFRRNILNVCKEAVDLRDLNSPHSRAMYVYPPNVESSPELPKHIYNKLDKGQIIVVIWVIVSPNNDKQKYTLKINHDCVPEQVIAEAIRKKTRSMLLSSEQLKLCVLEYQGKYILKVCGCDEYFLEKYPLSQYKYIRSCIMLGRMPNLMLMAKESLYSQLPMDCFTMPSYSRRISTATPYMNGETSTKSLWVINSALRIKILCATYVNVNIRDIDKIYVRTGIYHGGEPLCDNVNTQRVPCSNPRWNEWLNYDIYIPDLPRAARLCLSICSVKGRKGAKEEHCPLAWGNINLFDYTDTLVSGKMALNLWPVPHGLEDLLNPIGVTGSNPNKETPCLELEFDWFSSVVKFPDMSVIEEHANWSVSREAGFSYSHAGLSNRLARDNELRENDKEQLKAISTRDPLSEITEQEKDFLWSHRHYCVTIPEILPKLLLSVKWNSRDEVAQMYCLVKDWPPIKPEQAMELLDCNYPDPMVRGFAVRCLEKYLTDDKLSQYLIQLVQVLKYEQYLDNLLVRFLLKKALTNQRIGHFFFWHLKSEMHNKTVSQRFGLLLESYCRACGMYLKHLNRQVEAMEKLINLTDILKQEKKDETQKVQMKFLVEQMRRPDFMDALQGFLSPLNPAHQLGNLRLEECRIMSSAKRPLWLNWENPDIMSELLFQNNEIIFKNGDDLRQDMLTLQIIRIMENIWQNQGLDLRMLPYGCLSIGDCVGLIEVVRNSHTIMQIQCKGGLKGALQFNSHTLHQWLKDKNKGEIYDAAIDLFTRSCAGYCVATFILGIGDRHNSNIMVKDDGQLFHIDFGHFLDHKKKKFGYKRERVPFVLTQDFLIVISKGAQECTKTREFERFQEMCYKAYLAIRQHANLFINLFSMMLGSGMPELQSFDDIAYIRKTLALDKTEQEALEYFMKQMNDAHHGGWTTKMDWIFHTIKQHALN
# Assays:
# PI3K (p110α/p85α) = PI3K (p110α/p85α) (Homo sapiens (Human), UniProt P42336); assay: PI3K HTRF enzyme assay, p110α/p85α; type: biochemical; conditions: read-out: % inhibition @ 500 nM p110α; compound at 500 nM, 10 μM ATP
# Protocol: Recombinant PI3K (p110α/p85α) and PI3K (p110β/p85α) were from Millipore. […] Briefly, the compounds of interest dissolved in 100% DMSO were dispensed in all wells, following which the mixture of PIP2 and enzyme was added. PI3K (p110α/p85α) and PI3K (p110β/p85α) enzyme reactions were initiated in the presence of 10 μM and 100 μM ATP, respectively, and incubated for 30 min at room temperature. STOP solution prepared 2 hours prior to use was added to stop reactions, and mixed well. Detection solution prepared 2 hours prior to use was added, and incubated at room temperature for 17 hours in the dark. […] HTRF ration was calculated as follows: […]
# A549 cells = assay: Antiproliferation assay (MTS), A549; type: cell-based; conditions: Homo sapiens; A549, 72 hours of drug treatment
# PC-3 cells = assay: Antiproliferation assay (MTS), PC-3; type: cell-based; conditions: Homo sapiens, PC3, 72 hours of drug treatment
SMILES,inhibition at 0.5 µM (PI3K (p110α/p85α)),IC50 (A549 cells),IC50 (PC-3 cells)
"CSc1cnc(-c2ccc(NC(=O)Nc3ccc(N4CCN(C)CC4)cc3)cc2)nc1N1CCOCC1 [MTR-0246, 1-[4-(4-Methyl-piperazin-1-yl)-phenyl]-3-[4-(5-methylsulfanyl-4-morpholin-4-yl-pyrimidin-2-yl)-phenyl]-urea]",43.3%,1450 ± 29 nM,433 ± 10 nM
"CCOc1cnc(-c2ccc(NC(=O)Nc3ccncc3)cc2)nc1N1CCOCC1 [MTR-0446, 1-[4-(5-Ethoxy-4-morpholin-4-yl-pyrimidin-2-yl)-phenyl]-3-pyridin-4-yl-urea]",,379 ± 13 nM,130 ± 8 nM
"COc1cnc(-c2ccc(NC(=O)Nc3ccc(NS(C)(=O)=O)cc3)cc2)nc1N1CCOCC1 [MTR-0449, N-(4-{3-[4-(5-Methoxy-4-morpholin-4-yl-pyrimidin-2-yl)-phenyl]-ureido}-phenyl)-methanesulfonamide]",,1050 ± 12 nM,95 ± 7 nM
"CCOc1cnc(-c2ccc(NC(=O)Nc3ccc(S(=O)(=O)N4CCOCC4)cc3)cc2)nc1N1CCOCC1 [MTR-0452, 1-[4-(5-Ethoxy-4-morpholin-4-yl-pyrimidin-2-yl)-phenyl]-3-[4-(morpholine-4-sulfonyl)-phenyl]-urea]",,82 ± 3 nM,32 ± 1 nM
"CSc1c(-c2ccncc2)nc(-c2ccc(NC(=O)Nc3ccncc3)cc2)nc1N1CCOCC1 [MTR-0453, 1-[4-(5-Methylsulfanyl-4-morpholin-4-yl-6-pyridin-4-yl-pyrimidin-2-yl)-phenyl]-3-pyridin-4-yl-urea]",,206 ± 1 nM,56 ± 2 nM
"O=C(Nc1ccc(C(=O)N2CCOCC2)cc1)Nc1ccc(-c2ncc(OCCN3CCOCC3)c(N3CCOCC3)n2)cc1 [MTR-0454, 1-[4-(Morpholine-4-carbonyl)-phenyl]-3-{4-[4-morpholin-4-yl-5-(2-morpholin-4-yl-ethoxy)-pyrimidin-2-yl]-phenyl}-urea]",,215 ± 1 nM,54 ± 1 nM
"O=C(Nc1ccc(-c2ncc(OCCN3CCOCC3)c(N3CCOCC3)n2)cc1)Nc1ccc(N2CCOCC2=O)cc1 [MTR-0455, 1-{4-[4-Morpholin-4-yl-5-(2-morpholin-4-yl-ethoxy)-pyrimidin-2-yl]-phenyl}-3-[4-(3-oxo-morpholin-4-yl)-phenyl]-urea]",,309 ± 16 nM,72 ± 2 nM
"NC(=O)c1ccc(NC(=O)Nc2ccc(-c3ncc(OCCN4CCOCC4)c(N4CCOCC4)n3)cc2)cc1 [MTR-0456, 4-(3-{4-[4-Morpholin-4-yl-5-(2-morpholin-4-yl-ethoxy)-pyrimidin-2-yl]-phenyl}-ureido)-benzamide]",,2090 ± 34 nM,362 ± 25 nM
"CSc1c(-c2cccnc2)nc(-c2ccc(NC(=O)Nc3ccc(N4CCOCC4=O)cc3)cc2)nc1N1CCOCC1 [MTR-0457, 1-[4-(5-Methylsulfanyl-4-morpholin-4-yl-6-pyridin-3-yl-pyrimidin-2-yl)-phenyl]-3-[4-(3-oxo-morpholin-4-yl)-phenyl]-urea]",,11 ± 0.2 nM,6.5 ± 0.3 nM
"CSc1cnc(-c2ccc(NC(=O)Nc3ccc(C(=O)N4CCOCC4)cc3)cc2)nc1N1CCOCC1 [MTR-0461, 1-[4-(5-Methylsulfanyl-4-morpholin-4-yl-pyrimidin-2-yl)-phenyl]-3-[4-(morpholine-4-carbonyl)-phenyl]-urea]",,177 ± 3 nM,64 ± 2 nM
"CSc1cnc(-c2ccc(NC(=O)Nc3ccncc3)cc2)nc1N1CCOCC1 [MTR-0462, 1-[4-(5-Methylsulfanyl-4-morpholin-4-yl-pyrimidin-2-yl)-phenyl]-3-pyridin-4-yl-urea]",,448 ± 23 nM,182 ± 6 nM
"CSc1c(-c2cccnc2)nc(-c2ccc(NC(=O)Nc3ccc(NS(C)(=O)=O)cc3)cc2)nc1N1CCOCC1 [MTR-0463, N-(4-{3-[4-(5-Methylsulfanyl-4-morpholin-4-yl-6-pyridin-3-yl-pyrimidin-2-yl)-phenyl]-ureido}-phenyl)-methane sulfonamide]",,222 ± 15 nM,32 ± 1 nM
"CSc1c(-c2cccnc2)nc(-c2ccc(NC(=O)Nc3cccnc3)cc2)nc1N1CCOCC1 [MTR-0464, 1-[4-(5-Methylsulfanyl-4-morpholin-4-yl-6-pyridin-3-yl-pyrimidin-2-yl)-phenyl]-3-pyridin-3-yl-urea]",,12 ± 0.8 nM,2.4 nM
"CSc1c(-c2ccncc2)nc(-c2ccc(NC(=O)Nc3ccccc3)cc2)nc1N1CCOCC1 [MTR-0465, 1-[4-(5-Methylsulfanyl-4-morpholin-4-yl-6-pyridin-4-yl-pyrimidin-2-yl)-phenyl]-3-phenyl-urea]",,197 ± 3 nM,137 ± 2 nM
"CSc1c(Cl)nc(-c2ccc(NC(=O)Nc3ccncc3)cc2)nc1N1CCOCC1 [MTR-0469, 1-[4-(4-Chloro-5-methylsulfanyl-6-morpholin-4-yl-pyrimidin-2-yl)-phenyl]-3-pyridin-4-yl-urea]",,39 ± 2 nM,5.7 nM
"COc1c(Cl)nc(-c2ccc(NC(=O)Nc3ccncc3)cc2)nc1N1CCOCC1 [MTR-0476, 1-[4-(4-Chloro-5-methoxy-6-morpholin-4-yl-pyrimidin-2-yl)-phenyl]-3-pyridin-4-yl-urea]",,137 ± 6 nM,15 nM
"CCNC(=O)Nc1ccc(-c2nc(-c3ccncc3)c(SC)c(N3CCOCC3)n2)cc1 [MTR-0477, 1-Ethyl-3-[4-(5-methylsulfanyl-4-morpholin-4-yl-6-pyridin-4-yl-pyrimidin-2-yl)-phenyl]-urea]",,122 ± 1 nM,102 ± 1 nM
"CNC(=O)Nc1ccc(-c2nc(-c3ccncc3)c(SC)c(N3CCOCC3)n2)cc1 [MTR-0478, 1-Methyl-3-[4-(5-methylsulfanyl-4-morpholin-4-yl-6-pyridin-4-yl-pyrimidin-2-yl)-phenyl]-urea]",,107 ± 4 nM,102 ± 1 nM
"O=C(Nc1ccncc1)Nc1ccc(-c2ncc(OCCN3CCOCC3)c(N3CCOCC3)n2)cc1 [MTR-0481, 1-{4-[4-Morpholin-4-yl-5-(2-morpholin-4-yl-ethoxy)-pyrimidin-2-yl]-phenyl}-3-pyridin-4-yl-urea]",,608 ± 14 nM,424 ± 26 nM
